# Source: US20140349852A1, “METABOLIC CONTROL OF SEED GERMINATION” (Oregon State University, priority 2010, published 2014)
# Assays:
# [1] = system: AGE:NCED6 transgenic Camelina seeds; assay: Germination test of Camelina AGE:NCED6 seeds; assay type: in vivo, Camelina sativa; conditions: MOF and fluridone
# Protocol: For the induction experiment in imbibed seeds, seeds were placed in 9 cm plastic petri dishes on two layers of filter paper (No. 2, Whatman Inc.) moistened with 4 mL water or (122.6 μM or 2×10,000) MOF or 1 mM ABA and incubated at 4° C. for overnight and at 22° C. for 72 h (germination tests and gene expression analysis). For germination recovery, 10 M fluridone was included.
# To determine whether there was an effect of the AGE: NCED6 expression vector on the ability of transgenic seeds to undergo germination, wild-type and homozygous seeds from transgenic plant lines, 16-12, 17-17, and 13-12, were imbibed for three days in the presence or absence of MOF. […] Control seeds of non-transgenic plants were shown the same in the presence or absence of MOF. Germination of Camelina seeds is observed initially as ruptured testa followed by emergence of the […] when the radicle emerges.
# AGE:NCED6 seeds = assay: Germination test of imbibed AGE:NCED6 seeds; assay type: in vivo, Arabidopsis thaliana; conditions: 10 μM fluridone with Intrepid®2F
# Protocol: Briefly, for the induction of AGE:NCED6 plants at ˜10 rosette stages, diluted (×10,000), Intrepid®2F (Dow AgroSciences) solution which contained 62 μM MOF as an active ingredient was applied directly to the soil in pots containing Arabidopsis seedlings by drenching. Seedling were harvested two days after induction and frozen at −80° C. before RNA extraction. For the induction experiments in imbibed seeds, seeds were placed in 9 cm plastic petri dishes on two layers of filter paper (No. 2, Whatman Inc) moistened with 3.5 mL water or Intrepid®2F (×10,000) and incubated at 4° C. for 3 days and at 22° C. for 29 h (gene expression analysis) or 5 days (germination tests). For germination recovery, 10 μM fluridone was included with Intrepid®2F.
substance,measurement,setting,value
fluridone,herbicidal effect on seedlings from induced AGE:NCED6 Camelina seeds,[1],etiolated
same,herbicidal effect on seedlings from induced AGE:NCED6 seeds,AGE:NCED6 seeds,etiolated
